Measured values published in US20250000870A1, “Pharmaceutical Combinations for Treating Cancer” (Cellestia Biotech AG, priority 2021, published 2025).

What was measured:
MV-4-11 leukemic cells = assay: PrestoBlue combination screening with 6-(4-(tert-butyl)phenoxy)pyridin-3-amine, ZIP synergy analysis; assay type: cell-based, Human; settings: Drug 2 in combination with 6-(4-(tert-butyl)phenoxy)pyridin-3-amine (Drug 1), 72 hours
Protocol: (§1) Cell lines and drug combinations: Human T-ALL, AML and breast cancer cell lines RPMI-8402, MV-4-11 and HCC1187 were cultured under mycoplasma free conditions at 37° C. in RPMI-1640 media supplemented with 10% FCS (RPMI-8402 and HCC1187 cells) and IMDM media supplemented with 10% FCS (MV-4-11 cells). The kinase inhibitors listed in table 5 were used in combination with 6-(4-(tert-butyl) phenoxy)pyridin-3-amine.
(§2) 6-(4-(tert-butyl) phenoxy)pyridin-3-amine combination screening: Human cancer cells RPMI-8402, MV-4-11 and HCC1187 were seeded at a density of 10′000 cells/well in 96 well plate format and cultured in 100 μl of growth media. […] Concentration range used for each compound was determined based on individual IC50 values i.e concentration range selected flanks IC50 value of each compound. […] PrestoBlue® readout was taken using Sense (Hidex) plate reader.
(§3) PrestoBlue® viability assay: PrestoBlue® proliferation assays were performed to determine the growth kinetics of compound treated cells. […] In metabolically active and proliferating cells, resazurin is converted to resorufin due to an intrinsic reducing power of live cells and produces a red fluorescence. […] Cells were treated in triplicates (single agent) or duplicates (combinations) with pre-determined concentration of compounds as a single agent or in combination with 6-(4-(tert-butyl) phenoxy)pyridin-3-amine for 72 hours. […]

RPMI-8402 leukemic cells = assay: as above; assay type: cell-based, Human; settings: Drug 2 in combination with 6-(4-(tert-butyl)phenoxy)pyridin-3-amine (Drug 1), 72 hours
Protocol: as §1, §2, §3

`CNC(=O)c1ccccc1Sc1ccc2c(/C=C/c3ccccn3)n[nH]c2c1` [Axitinib, N-Methyl-2-[[3-[(E)-2-pyridin-2-ylethenyl]-1H-indazol-6-yl]sulfanyl]benzamide] gave a ZIP score (MV-4-11 leukemic cells) of 4.5 and a ZIP score (RPMI-8402 leukemic cells) of 35.5.
